## Antibody variant affinities, Ab-14 light chain, assay B

Source: Li et al. 2023 (doi:10.1038/s41467-023-39022-2), MIT Lincoln Laboratory and A-Alpha Bio; data file from the FLAb repository.

Antigen: PDVDLGDISGINAS, a 14-residue peptide of the SARS-CoV-2 spike HR2 region.

Parent scFv Ab-14: VH joined to VL by the linker GGGGSGGGGSGGGGS. Changes lie in the light chain CDRs alone.
VH: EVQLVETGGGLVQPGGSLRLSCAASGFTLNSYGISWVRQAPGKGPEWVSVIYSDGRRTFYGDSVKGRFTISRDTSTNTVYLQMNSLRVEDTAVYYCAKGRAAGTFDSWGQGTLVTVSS
VL: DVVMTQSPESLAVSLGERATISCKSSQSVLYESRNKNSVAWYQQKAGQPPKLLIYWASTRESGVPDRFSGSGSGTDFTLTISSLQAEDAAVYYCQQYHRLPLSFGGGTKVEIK

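Phage display of a naive human antibody library on the peptide gave the parent. Designed CDR sequences, proposed from the first random library and measured here. Several design methods are mixed in this list. AlphaSeq pools MATa yeast showing the antibodies with MATalpha yeast showing the peptide. The frequency of each diploid, read from paired DNA barcodes, reflects how well the two displayed proteins bind. Each replicate has its own calibration line, from reference interactions of the BCL2 family. Each pool was mated in six replicate cultures.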

Changes read parent residue, position, new residue, counted from the first residue of the VL shown. This list holds designs with at most six substitutions. The Kd shown is the geometric mean over detected replicates; a lower Kd is a better binder. A pair that was not seen in any replicate is written "nd"; this usually means weak binding, but a binder can also be missed. Empty control strains, which show no peptide, gave a signal in 4% of pairings with all light chain designs; the median was 430 nM and 95% of these signals were weaker than 38 nM. No background was subtracted.

- S25L S26E V29W S38N W56N: 830 pM (6 of 6 replicates)
- S25L N35M W56N S62W: 2.2 nM (6 of 6 replicates)
- V29Q L30R W56G: 4.9 nM (6 of 6 replicates)
- Q27S V29Y R34G W56N: 1.8 nM (6 of 6 replicates)
- S25L S26E V29Q W56N E61S: 440 pM (6 of 6 replicates)
- V29K L30W E61G S62D: 220 nM (4 of 6 replicates)
- S25W L30Q E32S W56N: 2.0 nM (6 of 6 replicates)
- Q27G R34G W56H S62D: 3.8 nM (6 of 6 replicates)
- V29Q W56N: 600 pM (6 of 6 replicates)
- S26L R34G N35D W56H S62D: 2.1 nM (6 of 6 replicates)
- Q27I V29Y R34E N37G W56E T59Q: 2.4 nM (6 of 6 replicates)
- S25L S26P V29M L30E W56N: 610 pM (6 of 6 replicates)
- S25L S26Q S38A W56D R99W: 800 pM (6 of 6 replicates)
- S25L V29A W56D: 280 pM (6 of 6 replicates)
- S25I Y31E R60Q: 27 nM (6 of 6 replicates)
- S26L W56N S62D R99Q: 3.2 nM (6 of 6 replicates)
- V29W L30E Y31P L100K: 140 nM (2 of 6 replicates)
- S25V S33Q S38N W56E: 460 pM (6 of 6 replicates)
- S25L R34M W56N T59Q: 2.8 nM (6 of 6 replicates)
- S25L V29Q K36S W56N: 1.4 µM (1 of 6 replicates)
- S25V S26L K36F W56H S62D: 1.4 nM (6 of 6 replicates)
- K24H S25M W56D S62T: 290 pM (6 of 6 replicates)
- S25F Q27G K36F S38G W56N H98W: 1.5 nM (6 of 6 replicates)
- S25V V29Q N35M W56N: 5.4 nM (6 of 6 replicates)
- S25L V29W W56Q S103A: 1.2 nM (6 of 6 replicates)
- S25V S33M W56N: 1.2 nM (6 of 6 replicates)
- S25L W56N S62W: 2.2 nM (6 of 6 replicates)
- S25L W56Q Y97H: 100 nM (6 of 6 replicates)
- V29Q Y31P S58T: 47 nM (6 of 6 replicates)
- S25I S28N L102I: 21 nM (5 of 6 replicates)
- S25L V29E W56S E61C: 1.4 nM (6 of 6 replicates)
- S25L R34N S103D: 54 nM (2 of 6 replicates)
- S25T E61V Q95K: 31 nM (6 of 6 replicates)
- K24N V29M: 180 nM (3 of 6 replicates)
- Y97L H98V S103Q: 140 nM (5 of 6 replicates)
- S25F S28W N35T W56N S62A: 2.5 nM (6 of 6 replicates)
- S25D S26Y V29R: nd (0 of 6 replicates)
- S26Q V29T L102F: 91 nM (1 of 6 replicates)
- S25V N35M W56H E61C S103E: 6.5 nM (6 of 6 replicates)
- S25V S33D W56N T59Q: 2.8 nM (6 of 6 replicates)
- S26G S28G W56G T59Q E61L: 1.1 nM (6 of 6 replicates)
- S25L S26Q V29F W56N S62E: 410 pM (6 of 6 replicates)
- R99P L102T: nd (0 of 6 replicates)
- S28G L30T Y31L W56N: 5.1 nM (6 of 6 replicates)
- W56A S103I: 3.8 nM (6 of 6 replicates)
- S25L S38N W56D: 240 pM (6 of 6 replicates)
- K24S L30Q W56S: 3.3 nM (6 of 6 replicates)
- Q27S S28N N37D H98F S103E: 41 nM (3 of 6 replicates)
- Q27I V29Y Y31E E32G W56E: 1.4 nM (6 of 6 replicates)
- V29E R34K W56N T59H Y97C: 11 nM (6 of 6 replicates)

The parent sequence was in this pool as ten entries: three were never detected, three once, and four in most replicates, with averages from 2.2 nM to 240 nM. The range of this assay differs from that of the first round, and the authors advise against merging the two. In the paper, a design with two or fewer of six values counts as a poor binder.